# Only a part is listed here, and it is no random draw. Results filed as inconclusive are left out. Active and inactive are the calls of the source. The call rests on the fitted dose curve; in most records, active means well fitted inhibition curve with a large enough effect; inconclusive means small, poorly fitted or top-dose-only effect; inactive means no such curve, though single readings can be large or run the other way.
# The chains behind the UniProt entries cited, without tags or fusion partners.
# UniProt P43220, whole entry: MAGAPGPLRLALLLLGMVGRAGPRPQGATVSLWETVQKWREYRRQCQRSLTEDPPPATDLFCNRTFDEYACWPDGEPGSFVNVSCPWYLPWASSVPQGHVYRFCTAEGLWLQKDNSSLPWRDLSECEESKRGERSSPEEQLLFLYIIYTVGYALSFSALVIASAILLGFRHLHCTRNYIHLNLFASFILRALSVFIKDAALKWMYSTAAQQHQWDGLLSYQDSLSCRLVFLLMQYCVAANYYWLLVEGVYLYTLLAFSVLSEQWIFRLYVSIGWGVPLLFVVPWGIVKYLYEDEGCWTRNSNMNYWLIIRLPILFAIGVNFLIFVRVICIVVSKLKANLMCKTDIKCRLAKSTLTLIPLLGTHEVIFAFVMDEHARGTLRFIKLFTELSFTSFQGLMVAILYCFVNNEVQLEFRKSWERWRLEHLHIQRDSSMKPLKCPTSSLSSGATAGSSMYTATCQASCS
# Target: Glucagon-like peptide 1 receptor (Homo sapiens) (UniProt P43220)
# Experiment: qHTS of GLP-1 Receptor Inverse Agonists (Inhibition Mode); further: nearly all actives have a fitted effect of over 55% in size
# Details: HEK293 GLP-1R CRE-luciferase, luminescence, 24 h, GLP-1R form is constitutively active; series mostly up to 38.3 µM; activity change, negative = inhibition: at the top concentration
# On the % scale 0 is the no-effect control and ±100 the full control effect; potency means the concentration at half of the fitted maximal effect.
Compound,"activity change, negative = inhibition",Potency
Cc1c([N+](=O)[O-])cc([N+](=O)[O-])c(Br)c1[N+](=O)[O-],inactive: -19.2%,–
CP(=O)(Nc1ccccc1)Oc1ccc(F)cc1 (centres undefined),inactive: -6.24%,–
CCOC(=O)c1ccc(NP(C)(=O)Oc2ccc(F)cc2)cc1 (centres undefined),inactive: -0.182%,–
CP(=O)(Nc1ccccc1F)Oc1ccccc1 (centres undefined),inactive: 10.2%,–
Cc1cc(C)cc(OP(C)(=O)Nc2ccccn2)c1 (centres undefined),inactive: 7.88%,–
Cc1cc(C)cc(OP(C)(=O)Nc2ccc(C)cc2C)c1 (centres undefined),inactive: 0%,–
CC1=NCCc2c1[nH]c1ccccc21.O=[N+]([O-])c1cc([N+](=O)[O-])c(O)c([N+](=O)[O-])c1,inactive: -7.76%,–
CN1CCCCC1COC(=O)C1(O)c2ccccc2CCc2ccccc21 (centres undefined),inactive: -59%,–
COc1ccccc1OP(C)(=O)Nc1c(C)cccc1C (centres undefined),inactive: -16.3%,–
O=[N+]([O-])c1cc([N+](=O)[O-])c(Nc2nnnn2CCO)c([N+](=O)[O-])c1,inactive: -6.78%,–
CC1=C2N=C(C=C3N=C(C(C)=C4[N-][C@@](C)([C@@H]5N=C1[C@](C)(CCC(=O)NC[C@@H](C)OP(=O)([O-])O[C@H]1[C@@H](O)[C@@H](n6cnc7cc(C)c(C)cc76)O[C@@H]1CO)[C@H]5CC(N)=O)[C@@](C)(CC(N)=O)[C@@H]4CCC(N)=O)[C@@](C)(CC(N)=O)[C@@H]3CCC(N)=O)C(C)(C)[C@@H]2CCC(N)=O.[C-]#N.[Co+3],inactive: 5.66%,–
O=[N+]([O-])c1cc([N+](=O)[O-])c(-c2cnn(-c3ccccc3)c2)c([N+](=O)[O-])c1,inactive: 6.26%,–
Cc1nc2ccc3ccccc3c2s1.O=[N+]([O-])c1cc([N+](=O)[O-])c(O)c([N+](=O)[O-])c1,inactive: 5.23%,–
O=[N+]([O-])c1cc([N+](=O)[O-])c(-n2nnc3ccccc32)c([N+](=O)[O-])c1,inactive: -3.58%,–
CN(Cc1cccnc1)C(=O)COc1ccc(Cl)c(Cl)c1.O=[N+]([O-])c1cc([N+](=O)[O-])c(O)c([N+](=O)[O-])c1,inactive: 11.5%,–
O=[N+]([O-])c1cc([N+](=O)[O-])c(O)c([N+](=O)[O-])c1.c1ccc(Oc2ccncc2)cc1,inactive: -4.92%,–
CCOC(=O)c1ccc(NP(C)(=O)Oc2ccc(OC)cc2)cc1 (centres undefined),inactive: -1.12%,–

Compound,"activity change, negative = inhibition",Potency
CCOP(C)(=S)SCC(=O)NC(C)C(=O)O (centres undefined),inactive: 6.78%,–
CP(=O)(Nc1ccccn1)Oc1ccc(Cl)cc1 (centres undefined),inactive: 4.7%,–
Cc1cccc(C)c1OP(C)(=O)Nc1ccc(SC(F)(F)F)cc1 (centres undefined),inactive: -23.2%,–
CP(=O)(NC(=O)Nc1ccccc1)Oc1ccccc1 (centres undefined),inactive: 8.51%,–
CP(=S)(Nn1cnnc1)Oc1ccccc1 (centres undefined),inactive: 0.39%,–
CP(=O)(Nc1ccccc1Br)Oc1ccccc1 (centres undefined),inactive: -6.04%,–
COc1ccccc1OP(C)(=O)Nc1ccccc1 (centres undefined),inactive: 10.2%,–
COc1ccccc1OP(C)(=O)Nc1ccc(C)cc1 (centres undefined),inactive: 5.65%,–
Cc1ccc(NP(C)(=O)Oc2ccccc2)c(C)c1 (centres undefined),inactive: -20%,–
CCOC(=O)c1ccc(NP(C)(=O)Oc2ccccc2)cc1 (centres undefined),inactive: 13.8%,–
Cc1cc(C)cc(OP(C)(N)=O)c1 (centres undefined),inactive: 6.56%,–
COc1ccccc1OP(C)(=O)Nc1cc(Cl)ccc1C (centres undefined),inactive: 5.5%,–
COc1ccc(OP(C)(=O)Nc2cccc(F)c2)cc1 (centres undefined),inactive: -13%,–
O=[N+]([O-])c1cc([N+](=O)[O-])c(Nc2cccnc2)c([N+](=O)[O-])c1,inactive: 20.5%,–
CC(C)(C)c1ccc(OP(C)(=O)Nc2ccc(SC(F)(F)F)cc2)cc1 (centres undefined),–,active: 4.47 µM
Cc1cccc(C)c1OP(C)(N)=O (centres undefined),inactive: 0.543% [at 7.66 µM],–
COc1ccccc1-c1ccccn1.O=[N+]([O-])c1cc([N+](=O)[O-])c(O)c([N+](=O)[O-])c1,inactive: 5.6%,–

# From PubChem BioAssay AID624417 (National Center for Advancing Translational Sciences (NCATS), 2012)
